# Earlier results in patent publication US20220023323A1, “RESETTING BIOLOGICAL PATHWAYS FOR DEFENDING AGAINST AND REPAIRING DETERIORATION FROM HUMAN AGING” (priority 2015, published 2022).
# Conditions: in vivo; cited from earlier work
substance,measurement,value
sodium sulfide [Na2S],time to increase of H2S concentration,within seconds to minutes
